Each structure is given as a SMILES string. The entries are a selection whose mix differs from that of the whole data set. Inconclusive results are not listed. The source made the active and inactive calls. Unless noted, calls follow the shape of the dose curve; as a rule, active = well fitted curve in the direction sought with a large enough effect in the repeat runs; inconclusive = weak or mixed curves; inactive = no such curve, though single readings can be large; an effect the other way counts as inactive or inconclusive.

Sequences of proteins named here, by UniProt entry; tags and fusion partners are left off.
UniProt P34981, whole entry: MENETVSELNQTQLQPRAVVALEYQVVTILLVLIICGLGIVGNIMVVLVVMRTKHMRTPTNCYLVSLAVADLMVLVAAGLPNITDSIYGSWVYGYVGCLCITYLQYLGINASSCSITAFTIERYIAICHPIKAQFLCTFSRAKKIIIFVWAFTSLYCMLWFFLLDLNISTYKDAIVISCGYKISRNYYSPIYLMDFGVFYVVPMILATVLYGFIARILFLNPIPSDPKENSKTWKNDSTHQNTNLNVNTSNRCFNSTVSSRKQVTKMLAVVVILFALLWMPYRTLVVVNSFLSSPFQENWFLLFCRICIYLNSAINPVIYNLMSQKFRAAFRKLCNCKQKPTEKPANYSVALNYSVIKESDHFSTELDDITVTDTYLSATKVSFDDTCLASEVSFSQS
UniProt O75469, whole entry: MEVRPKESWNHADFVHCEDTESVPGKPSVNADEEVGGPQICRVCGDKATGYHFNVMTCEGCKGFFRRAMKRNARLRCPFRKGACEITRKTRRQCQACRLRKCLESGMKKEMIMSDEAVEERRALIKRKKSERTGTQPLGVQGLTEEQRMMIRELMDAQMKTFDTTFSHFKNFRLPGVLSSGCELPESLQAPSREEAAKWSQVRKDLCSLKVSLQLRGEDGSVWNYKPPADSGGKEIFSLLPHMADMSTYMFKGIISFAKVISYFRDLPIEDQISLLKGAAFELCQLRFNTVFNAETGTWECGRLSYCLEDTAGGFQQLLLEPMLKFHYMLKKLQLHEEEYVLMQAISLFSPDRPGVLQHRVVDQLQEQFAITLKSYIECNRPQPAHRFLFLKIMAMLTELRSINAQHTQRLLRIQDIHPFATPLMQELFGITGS
UniProt P33261, whole entry: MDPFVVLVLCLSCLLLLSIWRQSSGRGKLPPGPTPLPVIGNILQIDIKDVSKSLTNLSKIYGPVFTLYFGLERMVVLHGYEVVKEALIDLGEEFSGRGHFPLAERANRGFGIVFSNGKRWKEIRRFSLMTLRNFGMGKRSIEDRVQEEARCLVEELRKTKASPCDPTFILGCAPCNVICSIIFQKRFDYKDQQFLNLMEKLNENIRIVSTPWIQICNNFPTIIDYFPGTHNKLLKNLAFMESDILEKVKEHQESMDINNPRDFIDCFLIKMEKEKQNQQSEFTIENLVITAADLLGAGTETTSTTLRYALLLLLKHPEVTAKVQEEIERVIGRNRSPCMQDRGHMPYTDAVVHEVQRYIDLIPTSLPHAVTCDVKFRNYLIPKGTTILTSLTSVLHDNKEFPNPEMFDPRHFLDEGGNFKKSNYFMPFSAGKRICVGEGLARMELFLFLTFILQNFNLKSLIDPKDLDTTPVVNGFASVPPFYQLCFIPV
UniProt P11712, whole entry: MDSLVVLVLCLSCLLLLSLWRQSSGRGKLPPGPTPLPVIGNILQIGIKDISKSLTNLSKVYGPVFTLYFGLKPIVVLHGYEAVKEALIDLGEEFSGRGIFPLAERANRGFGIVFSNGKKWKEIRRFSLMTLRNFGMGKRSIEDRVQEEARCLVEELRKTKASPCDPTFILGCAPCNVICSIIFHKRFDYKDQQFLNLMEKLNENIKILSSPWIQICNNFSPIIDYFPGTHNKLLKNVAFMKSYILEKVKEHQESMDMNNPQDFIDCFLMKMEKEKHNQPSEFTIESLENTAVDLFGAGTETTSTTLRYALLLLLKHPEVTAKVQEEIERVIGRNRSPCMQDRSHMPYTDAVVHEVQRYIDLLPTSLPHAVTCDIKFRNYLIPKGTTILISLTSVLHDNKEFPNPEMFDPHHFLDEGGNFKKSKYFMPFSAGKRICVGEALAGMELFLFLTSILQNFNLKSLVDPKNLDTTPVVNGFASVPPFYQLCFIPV
UniProt P05177, whole entry: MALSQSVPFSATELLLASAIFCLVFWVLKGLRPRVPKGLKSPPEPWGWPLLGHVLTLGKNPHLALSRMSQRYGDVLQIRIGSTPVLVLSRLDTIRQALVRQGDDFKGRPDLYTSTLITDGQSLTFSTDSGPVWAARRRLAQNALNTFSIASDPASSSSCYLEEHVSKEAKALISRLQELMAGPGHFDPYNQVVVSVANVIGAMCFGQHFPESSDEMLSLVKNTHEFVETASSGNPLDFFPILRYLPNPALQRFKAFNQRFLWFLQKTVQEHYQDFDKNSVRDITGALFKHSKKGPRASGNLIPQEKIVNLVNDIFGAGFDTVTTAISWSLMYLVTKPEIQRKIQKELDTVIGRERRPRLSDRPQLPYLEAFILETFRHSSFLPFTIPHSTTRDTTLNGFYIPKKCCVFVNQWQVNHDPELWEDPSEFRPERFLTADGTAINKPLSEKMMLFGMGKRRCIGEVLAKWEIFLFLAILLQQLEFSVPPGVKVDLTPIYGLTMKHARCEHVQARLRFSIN
UniProt Q12809, whole entry: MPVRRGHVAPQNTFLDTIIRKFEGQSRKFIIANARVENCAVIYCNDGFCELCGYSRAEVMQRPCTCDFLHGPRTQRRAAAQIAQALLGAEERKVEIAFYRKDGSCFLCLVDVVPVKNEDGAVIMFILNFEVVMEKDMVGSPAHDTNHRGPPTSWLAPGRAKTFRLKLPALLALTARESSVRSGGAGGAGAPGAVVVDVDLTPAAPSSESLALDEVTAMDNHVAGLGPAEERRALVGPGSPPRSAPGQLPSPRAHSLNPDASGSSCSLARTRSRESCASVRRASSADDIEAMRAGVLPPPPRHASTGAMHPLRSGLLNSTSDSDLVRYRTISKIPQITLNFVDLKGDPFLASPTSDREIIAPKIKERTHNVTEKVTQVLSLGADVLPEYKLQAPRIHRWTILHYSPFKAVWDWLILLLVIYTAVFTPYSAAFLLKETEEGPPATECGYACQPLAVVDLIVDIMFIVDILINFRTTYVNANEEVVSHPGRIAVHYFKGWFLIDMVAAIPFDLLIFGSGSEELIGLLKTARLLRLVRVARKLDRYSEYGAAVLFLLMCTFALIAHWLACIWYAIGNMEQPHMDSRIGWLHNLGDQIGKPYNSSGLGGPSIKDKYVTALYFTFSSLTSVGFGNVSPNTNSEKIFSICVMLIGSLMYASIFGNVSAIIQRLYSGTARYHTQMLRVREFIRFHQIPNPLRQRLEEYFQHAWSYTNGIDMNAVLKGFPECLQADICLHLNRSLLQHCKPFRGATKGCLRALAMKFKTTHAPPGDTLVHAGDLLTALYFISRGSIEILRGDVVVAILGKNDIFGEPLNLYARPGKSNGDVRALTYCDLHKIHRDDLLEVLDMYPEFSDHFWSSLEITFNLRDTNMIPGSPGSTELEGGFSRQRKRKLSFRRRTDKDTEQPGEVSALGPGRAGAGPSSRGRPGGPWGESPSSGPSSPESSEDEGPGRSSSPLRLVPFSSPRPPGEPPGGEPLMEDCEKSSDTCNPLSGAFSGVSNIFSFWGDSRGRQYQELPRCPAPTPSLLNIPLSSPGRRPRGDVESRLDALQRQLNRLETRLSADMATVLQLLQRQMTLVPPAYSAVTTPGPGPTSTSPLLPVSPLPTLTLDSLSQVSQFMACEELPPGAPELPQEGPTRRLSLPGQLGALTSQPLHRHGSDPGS
UniProt P08684, whole entry: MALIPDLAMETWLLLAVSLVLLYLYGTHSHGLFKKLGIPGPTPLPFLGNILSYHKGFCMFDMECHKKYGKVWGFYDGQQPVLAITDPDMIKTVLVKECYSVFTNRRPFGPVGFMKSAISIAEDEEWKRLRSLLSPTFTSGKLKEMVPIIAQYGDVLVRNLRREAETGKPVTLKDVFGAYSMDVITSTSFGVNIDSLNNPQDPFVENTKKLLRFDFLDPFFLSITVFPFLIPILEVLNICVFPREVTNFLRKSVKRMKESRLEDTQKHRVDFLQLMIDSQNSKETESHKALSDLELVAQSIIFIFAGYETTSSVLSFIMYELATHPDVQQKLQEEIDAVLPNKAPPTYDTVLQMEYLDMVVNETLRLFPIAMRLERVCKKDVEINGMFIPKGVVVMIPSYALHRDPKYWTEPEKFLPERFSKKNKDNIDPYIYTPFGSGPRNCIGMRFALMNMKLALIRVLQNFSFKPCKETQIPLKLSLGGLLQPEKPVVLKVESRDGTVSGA

The source of these data is PubChem BioAssay (Tox21).

Assay [1] in a line: qHTS assay to identify small molecule antagonists of the TGF-beta/Smad signaling pathway - cell viability counter screen (AID 1346824). Also: nearly all actives have a fitted effect of over 50% in size. Particulars: SBE-bla HEK293T viability, CellTiter-Glo luminescence; at 76.8 µM (top of the series) unless noted. The method, boiled down: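 SBE-bla HEK 293T cells, incubated overnight, then compound plus 0.25 ng/mL TGF-beta1 (stock added) for 5 hr at 37 C. Viability was read in the same wells by CellTiter-Glo luminescence after 30 min at room temperature.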
A general note: In qHTS, concentration-response curves come from the screen itself.

Assay [2] is described as follows: qHTS assay to identify small molecule agonists of the TGF-beta/Smad signaling pathway - cell viability counter screen (AID 1346829). Also: top concentration of the series differs between compounds; nearly all actives have a fitted effect of over 45% in size. Particulars: SBE-bla HEK293T viability, CellTiter-Glo luminescence, 5 h; at 76.8 µM (top of the series) unless noted. The method, boiled down:
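Compound-treated SBE-bla HEK 293T cells (5 hr, 37 C) were assessed for viability with CellTiter-Glo in parallel with the reporter read.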

The nature of assay [3]: qHTS assay to identify small molecule agonists of the TGF-beta/Smad signaling pathway (AID 1346859; active = well fitted activation curve with a large enough effect in the signal ratio in the repeat runs, not every such curve was filed as active; the % refers to the signal ratio). Conditions: SBE-bla HEK293T, TGF-beta/Smad beta-lactamase reporter, 5 h; at 76.8 µM (top of the series) unless noted. The method, boiled down:
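HEK 293T cells stably carrying a beta-lactamase reporter driven by the Smad binding element were seeded overnight, exposed to DMSO-dissolved compounds for 5 hr at 37 C, 5% CO2, then loaded with FRET substrate for 2 hr at room temperature.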

The target in assay [4] is Thyrotropin-releasing hormone receptor (Homo sapiens) (UniProt P34981). The experiment in a line: qHTS assay to identify small molecule antagonists of the thyrotropin-releasing hormone receptor (TRHR) signaling pathway (AID 1346877; active = well fitted inhibition curve with a large enough effect in the repeat runs, not every such curve was filed as active).
For assay [5] the target is unchanged. Briefly: qHTS assay to identify small molecule agonists of the thyrotropin-releasing hormone receptor (TRHR) signaling pathway (AID 1346891; calls by dose curve;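 also: HEK293 cells expressing TRHR with calcium dye readout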). Conditions: TRHR-HEK293 calcium fluorescence, agonist mode.
A short description of assay [6]: Human pregnane X receptor (PXR) small molecule agonists, qHTS cell viability counter screen (AID 1346977). Also: nearly all actives have a fitted effect of over 50% in size. The method, boiled down:
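PXR-Luc HepG2 cells in medium with 5% charcoal-stripped FBS were pre-incubated 5hr, then exposed to compounds for 24hr at 37C. Viability was read in the same wells by CellTiter-Fluor fluorescence, reagent added after 23hr with a 1hr incubation.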

A short description of assay [7]: Caspase-3/7 induction in HepG2 cells by small molecules, qHTS assay (AID 1346978). Also: nearly all actives have a fitted effect of over 15% in size. Conditions: HepG2 caspase-3/7 activation, Caspase-Glo luminescence, 17 h; at 92.4 µM (top of the series) unless noted. The procedure, abridged: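 Wild-type HepG2 cells, 2,000/well, settled 5 hr at 37 C and 5% CO2, then compound-treated for 17 hr; caspase-3/7 activity read by luminescent Caspase-Glo 3/7 after 30 min at room temperature.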

A short description of assay [8]: Caspase-3/7 induction in HepG2 cells by small molecules, qHTS cell viability counter screen (AID 1346981). Also: nearly all actives have a fitted effect of over 30% in size. Particulars: CellTiter-Fluor fluorescence, 17 h. The method, boiled down: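 Cell viability is measured as a cytotoxicity counter screen alongside the Caspase-Glo 3/7 readout in identical wells. Wild-type HepG2 cells are treated with test compounds for 16 hr at 37 C before CellTiter-Fluor addition and a 1-hr incubation.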

For assay [9], the target named is Nuclear receptor subfamily 1 group I member 2 (Homo sapiens) (UniProt O75469). The experiment in a line: Human pregnane X receptor (PXR) small molecule agonists, qHTS assay (AID 1346982). Also: nearly all actives have a fitted effect of over 35% in size. Also: potency is read from the fitted curve at half-maximal effect. The procedure, abridged: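 Cells: HepG2 stably carrying PXR-Luc. Medium held 5% charcoal-stripped FBS. Compounds in DMSO added after 5 hr plating, incubated 24 hr, then luminescence quantified with ONE-Glo.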

Assay [10] has as its target Cytochrome P450 2C19 (Homo sapiens) (UniProt P33261). The experiment in a line: Cytochrome P450 Family 2 Subfamily C Member 19 (CYP2C19) small molecule antagonists: luciferase reporter qHTS assay (AID 1671197). Also: nearly all actives have a fitted effect of over 65% in size. Also: potency is read from the fitted curve at half-maximal effect. The procedure, abridged:
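P450-Glo CYP2C19 screening system; proluciferin substrate; DMSO compound stocks; 10 min RT preincubation; NADPH regeneration, 1 h at 37C; luciferin detection reagent, 20 min RT; luminescence as RLU.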

Assay [11] deals with Cytochrome P450 2C9 (Homo sapiens) (UniProt P11712). The experiment in a line: Cytochrome P450 Family 2 Subfamily C Member 9 (CYP2C9) small molecule antagonists: luciferase reporter qHTS assay (AID 1671198). Also: nearly all actives have a fitted effect of over 50% in size. Also: potency is read from the fitted curve at half-maximal effect. The method, boiled down: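 P450-Glo proluciferin substrate with CYP2C9 enzyme; 10 min RT preincubation, then NADPH regeneration 1 h at 37C; luciferin detection reagent 20 min RT, luminescence in relative luminescence units.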
Background: Reporter assays use an easily measured gene product as a stand-in for the process of interest.

The target in assay [12] is Cytochrome P450 1A2 (Homo sapiens) (UniProt P05177). Briefly: Cytochrome P450 Family 1 Subfamily A Member 2 (CYP1A2) small molecule antagonists: luciferase reporter qHTS assay (AID 1671199). Also: nearly all actives have a fitted effect of over 50% in size. Also: potency is read from the fitted curve at half-maximal effect.
For assay [13], the target named is Voltage-gated inwardly rectifying potassium channel KCNH2 (Homo sapiens) (UniProt Q12809). The experiment in a line: Human Ether-a-go-go-Related Gene (hERG) channel small molecule antagonists: fluorescence cell-based qHTS assay (AID 1671200). The procedure, abridged: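 U2OS cells expressing the channel were plated at 1000 cells/well, incubated overnight at 37 C, then loaded with FluxOR II thallium-sensitive dye for 1 h at room temperature in the dark, with a further 10 min at room temperature before stimulation.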
Background: Block of hERG is tested as a sign of cardiac risk.

Assay [14] deals with Cytochrome P450 3A4 (Homo sapiens) (UniProt P08684). Briefly: Cytochrome P450 Family 3 Subfamily A Member 4 (CYP3A4) small molecule antagonists: luciferase reporter qHTS assay (AID 1671201). Also: nearly all actives have a fitted effect of over 50% in size. The procedure, abridged: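 P450-Glo CYP3A4 system with proluciferin substrate; compounds preincubated 10 min RT with enzyme-substrate mix, then NADPH regeneration added for 1 h RT. Detection reagent 20 min, luminescence read as relative luminescence units.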
% is scaled to controls: 0 for no effect and ±100 for the full control effect.

On to `CN(C)CCCl`, for which, in [1], the viability change, negative = cytotoxic was inactive: 3.68%. Further, the activity change, negative = cytotoxicity was inactive: -6.38% in assay [2] and inactive: -7.89% in assay [8] (at 92.4 µM (top of the series)). In addition, the values for the activation in assay [3] and in [5] (at 57.6 µM (top of the series)) were inactive: 1.9% and inactive: -0.368%, respectively. Besides, the Potency entry in assay [4], in assay [6], in assay [9], in assay [10], in assay [11] and in [12] was “inactive” each time. Further, the Potency entry in assay [13] and in assay [14] was “inactive” in each case. Also, the caspase activation in assay [7] was inactive: -1.29%.

Turning to `COc1ccc([N+](=O)[O-])cc1[N+](=O)[O-]`, the viability change, negative = cytotoxic in [1] is inactive: 0.907%. The activity change, negative = cytotoxicity was inactive: -23.7% in [2] and inactive: -0.0118% in assay [8] (at 92.4 µM (top of the series)). In addition, the activation is inactive: 0.0972% in assay [3] and inactive: 0.169% in assay [5] (at 57.6 µM (top of the series)). Also, the Potency entry in assay [4], in [6], in assay [11], in assay [13] and in assay [14] was “inactive” throughout. In addition, the caspase activation in assay [7] is inactive: 0.922%. The Potency in assay [12] is active: 10 µM.

With `O=[N+]([O-])c1cccc([N+](=O)[O-])c1`, the viability change, negative = cytotoxic in assay [1] was inactive: 15.1%. In addition, the activity change, negative = cytotoxicity in assay [2] was inactive: 1.14%; in assay [8] (at 92.4 µM (top of the series)) it was inactive: 1.98%. Besides, the activation in assay [3] is inactive: -3.54%; in assay [5] (at 57.6 µM (top of the series)) it was inactive: 0.678%. Moreover, the Potency entry in assay [4], in assay [6], in assay [10], in assay [13] and in assay [14] was “inactive” in each case. For the same molecule, in [7], the caspase activation is inactive: -0.94%. Further, the Potency in assay [12] was active: 45.5 µM.

`CCOP(=O)(CC)OCC`: the viability change, negative = cytotoxic in [1] is inactive: -1.98%. The activity change, negative = cytotoxicity was inactive: 1.12% in assay [2] and inactive: -2.63% in assay [8] (at 92.4 µM (top of the series)). The activation in assay [3] was inactive: 1.27%; in assay [5] (at 57.6 µM (top of the series)), inactive: -0.0278%. Besides, the Potency result in [4], in [6], in assay [9], in assay [10], in [11] and in [13] was “inactive” each time. Moreover, the Potency result in assay [14] is “inactive”. In addition, in assay [7], the caspase activation was inactive: 0.295%.

As for `C/C1=C2N=C(/C=C3N=C(/C(C)=C4\[N-][C@@](C)([C@@H]5N=C1[C@](C)(CCC(=O)NC[C@@H](C)OP(=O)([O-])O[C@H]1[C@@H](O)[C@@H](n6cnc7cc(C)c(C)cc76)O[C@@H]1CO)[C@H]5CC(N)=O)[C@@](C)(CC(N)=O)[C@@H]4CCC(N)=O)[C@@](C)(CC(N)=O)[C@@H]\3CCC(N)=O)C(C)(C)[C@@H]/2CCC(N)=O.[C-]#N.[Co+3]`, the viability change, negative = cytotoxic in assay [1] was inactive: 22% [at 35.3 µM]. In addition, the values for the activity change, negative = cytotoxicity in assay [2] and in [8] (at 42.5 µM (top of the series)) were inactive: -0.0333% [at 35.3 µM] and inactive: -1.32%, respectively. In addition, the activation in assay [3] is inactive: -1.41% [at 35.3 µM]; in assay [5] (at 26.5 µM (top of the series)), inactive: -0.599%. In addition, the Potency result in assay [4], in [6], in assay [9], in assay [10], in assay [13] and in assay [14] was “inactive” in each case. In assay [7], the caspase activation was inactive: -0.773% [at 42.5 µM].

Turning to `Cc1cccc([N+](=O)[O-])c1[N+](=O)[O-]`, the activity change, negative = cytotoxicity in assay [2] is inactive: -10.2% [at 35.3 µM]. Moreover, the activation in assay [3] was inactive: -5.73% [at 35.3 µM]; in assay [5] (at 26.5 µM (top of the series)) it was inactive: 1.86%. For the same molecule, the Potency result in assay [4], in assay [13] and in assay [14] was “inactive” each time. Further, the caspase activation in [7] is inactive: 5.64% [at 42.5 µM]. For the same molecule, the Potency was active: 45.8 µM in assay [9], active: 23.8 µM in [10] and active: 12.6 µM in assay [11].
